The values that follow come from patent US20260337245A1, “POLYPEPTIDE OR ANALOG THEREOF AND USE THEREOF” (Shenzhen Bay Laboratory, priority 2024, published 2026).

The conditions of data set [1]: background; cited from earlier work.
In data set [2] the target is T1, CTR (Homo sapiens, UniProt P30988).
T1 construct: expressed in transfected cells
T1 sequence (P30988 25-474): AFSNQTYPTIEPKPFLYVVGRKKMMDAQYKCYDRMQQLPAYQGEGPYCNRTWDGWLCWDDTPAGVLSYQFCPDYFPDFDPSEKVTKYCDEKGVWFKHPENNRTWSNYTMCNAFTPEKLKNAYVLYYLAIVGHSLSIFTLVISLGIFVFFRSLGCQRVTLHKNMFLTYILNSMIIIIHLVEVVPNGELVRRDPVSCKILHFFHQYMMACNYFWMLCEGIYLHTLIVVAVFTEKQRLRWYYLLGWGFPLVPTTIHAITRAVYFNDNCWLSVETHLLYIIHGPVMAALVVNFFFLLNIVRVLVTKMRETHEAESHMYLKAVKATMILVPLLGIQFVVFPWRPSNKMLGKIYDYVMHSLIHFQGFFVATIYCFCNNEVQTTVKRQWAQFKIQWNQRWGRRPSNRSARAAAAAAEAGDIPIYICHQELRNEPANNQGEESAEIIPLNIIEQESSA
Description: HTRF cAMP assay, CTR. The format is cell-based. The note with it: HEK293/pGM-CREB-L-Luc/CTR pool, read-out: IC50 of receptor CTR. The text has this: 2. The polypeptide derivatives prepared in Example 1 and Example 2 of the present disclosure can bind to the target AMYR and CTR receptors on the cell membrane, activate the receptors and release cAMP. Therefore, the activity of the analyte can be determined by using an HTRF (homogeneous time-resolved fluorescence) method and using a cAMP detection kit. The specific steps were as follows:
A stable transfected cell line of HEK293/pGM-CREB-L-Luc/AMY3R pool and HEK293/pGM-CREB-L-Luc/CTR pool was constructed. The polypeptide derivatives (i.e., AMY-001 to AMY-041) prepared in Examples 1 and 2 were subjected to 5-fold serial dilution from a maximum of 1000 nM to prepare a dilution series containing 8 to 11 concentration gradients. Cagrilintide and sCT were selected as positive controls for testing, and a dilution series was prepared according to the same method for testing. The test cell lines were selected and treated with cAMP-specific trypsin for digestion, and then suspended with 3 mL of serum-free DMEM medium by pipetting, and the cells were counted. […] A HTRF value was determined by a chemiluminescence microplate reader, and the results were recorded. […]

As for `CC[C@H](C)[C@H](NC(=O)[C@@H]1CCCN1C(=O)CNC(=O)[C@H](Cc1ccccc1)NC(=O)[C@H](CC(N)=O)NC(=O)[C@H](CC(N)=O)NC(=O)[C@H](CO)NC(=O)[C@H](CO)NC(=O)[C@H](Cc1c[nH]cn1)NC(=O)[C@@H](NC(=O)[C@H](CC(C)C)NC(=O)[C@H](Cc1ccccc1)NC(=O)[C@H](CC(N)=O)NC(=O)[C@H](C)NC(=O)[C@H](CC(C)C)NC(=O)[C@H](CCCNC(=N)N)NC(=O)[C@H](CCC(N)=O)NC(=O)[C@@H](NC(=O)[C@H](C)NC(=O)[C@@H]1CSSC[C@H](NC(=O)[C@@H](N)CCCCN)C(=O)N[C@@H](CC(N)=O)C(=O)N[C@@H]([C@@H](C)O)C(=O)N[C@@H](C)C(=O)N[C@@H]([C@@H](C)O)C(=O)N1)[C@@H](C)O)C(C)C)C(=O)N[C@@H](CC(C)C)C(=O)N1CCC[C@H]1C(=O)N1CCC[C@H]1C(=O)N[C@H](C(=O)N[C@@H](CC(N)=O)C(=O)N[C@H](C(=O)NCC(=O)N[C@@H](CO)C(=O)N[C@@H](CC(N)=O)C(=O)N[C@H](C(=O)N[C@@H](Cc1ccc(O)cc1)C(N)=O)[C@@H](C)O)C(C)C)[C@@H](C)O` [Pramlintide, reference compound], the in-vivo half-life entry in data set [1] is listed as “less than 1 hour”. Moreover, the EC50 in data set [2] amounted to 8.7 pM.
